As usually defined, the inhibition is the drop in the measured response relative to a control, in per cent.

The chains behind the UniProt entries cited, without tags or fusion partners.
UniProt P11940, whole entry: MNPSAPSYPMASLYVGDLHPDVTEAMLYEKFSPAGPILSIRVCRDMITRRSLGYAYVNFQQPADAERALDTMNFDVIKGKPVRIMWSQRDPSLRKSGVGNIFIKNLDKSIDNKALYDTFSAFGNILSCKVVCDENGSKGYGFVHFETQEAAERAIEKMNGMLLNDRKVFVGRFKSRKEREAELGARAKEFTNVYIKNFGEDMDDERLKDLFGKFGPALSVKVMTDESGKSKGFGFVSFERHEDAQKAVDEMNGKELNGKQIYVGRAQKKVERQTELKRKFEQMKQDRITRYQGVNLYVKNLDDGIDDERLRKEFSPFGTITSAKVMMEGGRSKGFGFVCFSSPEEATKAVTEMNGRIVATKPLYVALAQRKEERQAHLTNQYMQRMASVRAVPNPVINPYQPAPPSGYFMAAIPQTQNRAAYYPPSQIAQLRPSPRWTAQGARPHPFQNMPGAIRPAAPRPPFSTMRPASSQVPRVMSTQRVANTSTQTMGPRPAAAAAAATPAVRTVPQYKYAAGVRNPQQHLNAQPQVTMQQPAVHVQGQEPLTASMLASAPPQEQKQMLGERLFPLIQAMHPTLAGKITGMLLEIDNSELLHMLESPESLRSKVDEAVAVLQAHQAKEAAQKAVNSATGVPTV

The values that follow come from PubChem BioAssay AID588489 (Sanford-Burnham Center for Chemical Genomics, 2011).

Structures are written as SMILES. The entries are a selection whose mix differs from that of the whole data set. The source made the active and inactive calls. No stated cut-off is given here; in the data, active means inhibition above about 35% (passing the limit was not always enough); inactive means the rest.

The assay deals with Polyadenylate-binding protein 1 (Homo sapiens) (UniProt P11940). As to the kind of experiment: PAM2 peptide displacement from PABP1 MLLE – biochemical, fluorescence polarization, FITC-PAM2, GST-MLLE, primary screen (AID 588489).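 Further: plate controls were DMSO wells with GST-MLLE for no effect and wells lacking GST-MLLE protein for full effect.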 Particulars: at 20 µM, hits give high values.
On to `O=c1[nH]c2ccccc2n1C1CCN(C(c2ccccc2)c2nnnn2C2CCCCC2)CC1` (configuration not stated), for which the inhibition was inactive: 3.18%.

Take `Cc1ccc(NC2(C#N)CCN(Cc3ccccc3)CC2)cc1`: the inhibition is inactive: -6.48%. For the compound `Cc1ccc(C(=O)NCC2(N3CCCCC3)CCCCC2)o1`, the inhibition was inactive: -3.14%. To `Fc1ccccc1NC1CCN(Cc2ccccc2)CC1` belongs inactive: -8.18%. Regarding `COc1cc(OC)cc(C(=O)NCC2(N3CCCCC3)CCCCC2)c1`, the inhibition was inactive: -1.28%. Turning to `O=c1[nH]c2ccccc2n1C1CCN(C(c2ccnc3ccccc23)c2nnnn2C2CCCCC2)CC1` (configuration not stated), the inhibition was inactive: 6.15%. As for `COc1cccc(C(c2nnnn2C2CCCCC2)N2CCC(n3c(=O)[nH]c4ccccc43)CC2)c1OC` (configuration not stated), the inhibition is inactive: -11.4%. For the compound `CC(=O)N(c1ccccc1)C1CCNCC1`, the inhibition was inactive: -6.34%. `CCC(c1nnnn1C1CCCCC1)N1CCC(n2c(=O)[nH]c3ccccc32)CC1` (configuration not stated): the inhibition was inactive: 5%. Regarding `O=C(NCC1(N2CCCCC2)CCCCC1)c1ccco1`, the inhibition is inactive: 1.56%. `CN(C)c1ccc(C(=O)NCC2(N3CCCCC3)CCCCC2)cc1`: the inhibition is inactive: -2.06%.

Take `Cn1c(=O)[nH]cc(N(CCCl)CCCl)c1=O`: the inhibition was inactive: 0.83%. To `Cc1ccccc1NC1(C#N)CCN(Cc2ccccc2)CC1` belongs inactive: 1.13%; to `CCN1CCC(Nc2cccc(F)c2)CC1`, inactive: 6.85%. Consider `COc1ccc(C(c2nnnn2C2CCCCC2)N2CCC(n3c(=O)[nH]c4ccccc43)CC2)cc1` (configuration not stated), for which the inhibition is inactive: -2.97%. For the compound `CC(C)(C)n1nnnc1C(c1ccnc2ccccc12)N1CCC(n2c(=O)[nH]c3ccccc32)CC1` (configuration not stated), the inhibition was inactive: 6.02%.

For `O=c1[nH]c2ccccc2n1C1CCN(C(c2cc3ccccc3o2)c2nnnn2C2CCCC2)CC1` (configuration not stated), the inhibition was inactive: 12.9%.

For `CCCOc1ccc(C(=O)NCC2(N(C)C)CCCCC2)cc1`, the inhibition is inactive: -3.73%.

`CC(C)(C)OC(=O)N1CCC(Nc2ccccc2)CC1`: the inhibition was inactive: 3.48%. As to `O=C(O)C1(Nc2ccccc2)CCN(Cc2ccccc2)CC1`, the inhibition is inactive: -7.6%.

Regarding `CCOc1ncccc1C(=O)NCC1(N2CCOCC2)CCCCC1`, the inhibition was inactive: -1.51%. Regarding `CN1CCC(Nc2ccc(F)c(Cl)c2)CC1`, the inhibition was inactive: 1.35%. Take `CN1CCC(Nc2ccc(Cl)cc2)CC1`: the inhibition is inactive: 0.27%.

As for `CCC(CO)(C(=O)OC1CN2CCC1CC2)c1ccccc1` (configuration not stated), the inhibition is inactive: -2.74%. The result for `COc1cccc(C(=O)N(c2cc(C)cc(C)c2)C2CCN(C(=O)OC(C)(C)C)CC2)c1` reads inactive: -0.48%. As to `COc1cc(OC)cc(C(=O)NCC2(N3CCOCC3)CCCCC2)c1`, the inhibition was inactive: -10.9%.

Take `COc1cccc(C(c2nnnn2C2CCCC2)N2CCC(n3c(=O)[nH]c4ccccc43)CC2)c1OC` (configuration not stated): the inhibition is inactive: 16.8%. `COc1ccc(C(=O)NCC2(N3CCOCC3)CCCCC2)cc1OC`: the inhibition is inactive: 3.05%. The result for `O=c1[nH]c2ccccc2n1C1CCN(C(c2ccnc3ccccc23)c2nnnn2C2CCCC2)CC1` (configuration not stated) reads inactive: 4.35%. Consider `O=c1[nH]c2ccccc2n1C1CCN(C(c2cccs2)c2nnnn2C2CCCCC2)CC1` (configuration not stated), for which the inhibition is inactive: 5.54%. As to `O=C(NCC1(N2CCOCC2)CCCCC1)c1cc(Br)ccc1Cl`, the inhibition is inactive: 0.09%. For the compound `CCCCn1nnnc1C(c1ccccc1)N1CCC(n2c(=O)[nH]c3ccccc32)CC1` (configuration not stated), the inhibition is inactive: 0.71%. Consider `COc1cc(C(=O)NCC2(N3CCOCC3)CCCCC2)cc(OC)c1C`, for which the inhibition is inactive: 12%. For `CCCCn1nnnc1C(c1cccc(OC)c1OC)N1CCC(n2c(=O)[nH]c3ccccc32)CC1` (configuration not stated), the inhibition is inactive: -15.1%. To `O=C(OC1CN2CCC1CC2)C1c2ccccc2C=Cc2ccccc21` (configuration not stated) belongs inactive: -5.97%; to `O=c1[nH]c2ccccc2n1C1CCN(C(c2cccs2)c2nnnn2C2CCCC2)CC1` (configuration not stated), inactive: 6.45%; to `N/C(=N\O)c1c(N)no[n+]1[O-]`, inactive: 11.2%. The result for `CCOC(=O)N1CCC(Nc2ccc(C)cc2)CC1` reads inactive: -1.86%; that for `COc1cccc(C(c2nnnn2C(C)(C)C)N2CCC(n3c(=O)[nH]c4ccccc43)CC2)c1OC` (configuration not stated), inactive: -11.6%. `CC(C)(C)OC(=O)N1CCC(N(C(=O)c2ccccc2)c2ccc(Cl)cc2)CC1`: the inhibition is inactive: 1.97%.

In the case of `N#Cc1ccc(C(=O)NCC2(N3CCCCC3)CCCCC2)cc1`, the inhibition was inactive: 14.4%. To `CC(C)(C)n1nnnc1C(c1cccc2ccccc12)N1CCC(n2c(=O)[nH]c3ccccc32)CC1` (configuration not stated) belongs inactive: 8.07%; to `c1ccc(CN2CCC(Nc3ccccc3)CC2)cc1`, inactive: 1.19%; to `Cc1cc(N(CCCl)CCCl)ccc1C=O`, inactive: 2.37%. Regarding `O=c1[nH]c2ccccc2n1C1CCN(C(c2ccccc2)c2nnnn2C2CCCC2)CC1` (configuration not stated), the inhibition was inactive: 2.48%. To `CCCN1CCC(Nc2cc(OC)cc(OC)c2)CC1` belongs active: 46.2%; to `CN(C)C1(CNC(=O)c2cccc(C#N)c2)CCCCC1`, inactive: 4.56%.
